Measured values from ChEMBL document CHEMBL5506011, “Discovery of novel and selective farnesoid X receptor antagonists through structure-based virtual screening, preliminary structure-activity relationship study, and biological evaluation” (Eur J Med Chem, 2024).
Calls of active or inactive are those of the source. The calls are words filed in the database; no cut-off is given here.

Sequences of proteins named here, by UniProt entry; tags and fusion partners are left off.
UniProt P10826, whole entry: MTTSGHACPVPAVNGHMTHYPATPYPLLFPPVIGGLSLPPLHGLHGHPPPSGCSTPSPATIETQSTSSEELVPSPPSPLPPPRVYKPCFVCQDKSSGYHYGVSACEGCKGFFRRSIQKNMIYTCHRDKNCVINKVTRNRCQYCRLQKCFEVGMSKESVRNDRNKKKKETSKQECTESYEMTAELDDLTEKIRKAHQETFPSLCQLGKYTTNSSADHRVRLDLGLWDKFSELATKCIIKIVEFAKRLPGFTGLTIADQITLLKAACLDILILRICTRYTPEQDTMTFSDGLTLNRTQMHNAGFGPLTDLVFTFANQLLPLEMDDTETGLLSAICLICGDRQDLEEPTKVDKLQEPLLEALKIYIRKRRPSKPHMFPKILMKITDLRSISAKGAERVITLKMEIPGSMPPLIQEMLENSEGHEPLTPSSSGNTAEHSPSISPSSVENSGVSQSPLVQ
UniProt P13631, whole entry: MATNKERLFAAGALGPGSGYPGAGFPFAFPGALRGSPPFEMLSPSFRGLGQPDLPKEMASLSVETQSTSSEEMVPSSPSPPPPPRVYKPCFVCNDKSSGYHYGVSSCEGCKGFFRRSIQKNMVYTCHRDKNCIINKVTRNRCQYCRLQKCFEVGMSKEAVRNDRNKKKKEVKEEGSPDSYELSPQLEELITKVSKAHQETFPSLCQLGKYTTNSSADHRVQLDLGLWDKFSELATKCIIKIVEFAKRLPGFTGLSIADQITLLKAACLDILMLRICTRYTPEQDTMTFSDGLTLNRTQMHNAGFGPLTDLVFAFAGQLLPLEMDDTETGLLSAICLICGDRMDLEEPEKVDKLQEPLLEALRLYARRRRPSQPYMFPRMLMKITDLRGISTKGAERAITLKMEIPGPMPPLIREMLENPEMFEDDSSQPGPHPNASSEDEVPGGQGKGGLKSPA

Tests used:
[1] = biological target: Retinoic acid receptor beta (Homo sapiens) (UniProt P10826); assay: Antagonist activity at human RARbeta transfected in HEK293T cells co-transfected with RARE-luciferase gene assessed as transactivation measured after 24 hrs by cell-based dual-luciferase reporter gene assay
[2] = biological target: Retinoic acid receptor gamma (Homo sapiens) (UniProt P13631); assay: Agonist activity at human RARgamma transfected in HEK293T cells co-transfected with RARE-luciferase gene assessed as transactivation measured after 24 hrs by cell-based dual-luciferase reporter gene assay
[3] = biological target: Retinoic acid receptor beta (Homo sapiens) (UniProt P10826); assay: Agonist activity at human RARbeta transfected in HEK293T cells co-transfected with RARE-luciferase gene assessed as transactivation measured after 24 hrs by cell-based dual-luciferase reporter gene assay
[4] = biological target: Retinoic acid receptor gamma (Homo sapiens) (UniProt P13631); assay: Antagonist activity at human RARgamma transfected in HEK293T cells co-transfected with RARE-luciferase gene assessed as transactivation measured after 24 hrs by cell-based dual-luciferase reporter gene assay

Activity [1]: inactive
Activity [2]: inactive
Activity [3]: inactive
Activity [4]: inactive
Compound: CCN(CC)c1ccc(CN(CC2CC2)C(=O)NC(C)(C)C)c(OS(=O)(=O)c2ccc(NC(C)=O)cc2)c1
